This assay has as its target T1, K-SPOTIT1.0 (Homo sapiens, UniProt P41145).
T1 construct: signal peptide (MKTIIALSYIFCLVFA) (N); expressed in transfected cells; host or cells: HEK293T (lentiviral infection)
The class given is cell-based.

By UniProt entry, the sequences of proteins in these tests, tags left out. Chains listed by the source or under a name are the forms on record and can include a tag or linker.
UniProt P41145, with tags, fused parts or gaps: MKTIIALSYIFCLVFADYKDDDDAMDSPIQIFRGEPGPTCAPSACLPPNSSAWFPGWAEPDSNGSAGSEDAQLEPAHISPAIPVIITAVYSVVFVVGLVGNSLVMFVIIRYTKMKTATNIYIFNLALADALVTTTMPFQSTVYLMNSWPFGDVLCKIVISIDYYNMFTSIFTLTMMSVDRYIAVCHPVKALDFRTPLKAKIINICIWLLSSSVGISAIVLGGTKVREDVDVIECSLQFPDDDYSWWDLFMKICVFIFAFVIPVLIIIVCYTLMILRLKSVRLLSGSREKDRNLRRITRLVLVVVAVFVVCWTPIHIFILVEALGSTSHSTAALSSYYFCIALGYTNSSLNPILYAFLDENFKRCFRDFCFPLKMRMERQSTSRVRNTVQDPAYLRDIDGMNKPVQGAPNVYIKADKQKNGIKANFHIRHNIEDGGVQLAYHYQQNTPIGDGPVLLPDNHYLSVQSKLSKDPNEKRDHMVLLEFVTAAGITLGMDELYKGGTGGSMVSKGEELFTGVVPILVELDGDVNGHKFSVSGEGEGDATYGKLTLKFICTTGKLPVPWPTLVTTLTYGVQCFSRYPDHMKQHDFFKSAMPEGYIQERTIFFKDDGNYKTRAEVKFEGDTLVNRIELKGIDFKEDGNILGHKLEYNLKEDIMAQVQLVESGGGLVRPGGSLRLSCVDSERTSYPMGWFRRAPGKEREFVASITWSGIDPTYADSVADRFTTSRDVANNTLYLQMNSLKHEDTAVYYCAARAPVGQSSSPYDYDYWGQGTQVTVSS

Each structure is given as a SMILES string. A value given as a limit tells only on which side of the number the result lay.

As for `COC(=O)[C@@H]1C[C@H](OC(C)=O)C(=O)[C@H]2[C@@]1(C)CC[C@H]1C(=O)O[C@H](c3ccoc3)C[C@]21C` [Sal A, Salvinorin A], the “biosensor expression level change in the presence and absence of Sal A (immunostaining)” value is on record as under 1 fold; the “fluorescence increase after short pulse of agonist” value was 4.2 fold; the “fluorescence increase compared to the condition without Sal A” value was found to be 10.9 fold; the “fluorescence increase with longer agonist incubation” value turned out to be 12 fold.

For the origin of these results see US20240141017A1, “FLUORESCENT BIOSENSORS AND METHODS OF USE FOR DETECTING CELL SIGNALING EVENTS” (THE REGENTS OF THE UNIVERSITY OF MICHIGAN, priority 2021, published 2024).
